Measurements from patent US20110306801A1, “EXTRACTION AND SEPARATION PROCESSES FOR RECOVERY OF ORGANIC SOLUTES FROM FEED SOURCES AND APPARATUSES FOR PERFORMING SAME” (Trans Ionics Corporation, priority 2009, published 2011).
Where two headings read alike, the source gives them in different places.

What was measured:
[1] = Experimental: One measure of the effectiveness of a solvent for extracting solutes is termed the distribution coefficient, which is calculated as follows in Formula (1):
DC=(Wo/Ws)ext/(Wo/Ww)raff (1)
The slope of this line is the distribution coefficient.

[2] = butanol, ABE feed, cetyl alcohol/mixed xylenes 50/50 wt %
[3] = butanol, ABE solution in water, mixed xylenes 5:1, 40° C., feed Wo/Ww 0.005
[4] = butanol, ABE solution in water, mixed xylenes 5:1, 40° C., feed Wo/Ww 0.01
[5] = butanol, ABE solution in water, mixed xylenes 5:1, 40° C., feed Wo/Ww 0.02
[6] = butanol, ABE solution in water, mixed xylenes 5:1, 40° C., feed Wo/Ww 0.025
[7] = butanol, ABE solution in water, mixed xylenes 5:1, 40° C., feed Wo/Ww 0.03
[8] = butanol, ABE solution in water, mixed xylenes 5:1, 75° C., feed Wo/Ww 0.005
[9] = butanol, ABE solution in water, mixed xylenes 5:1, 75° C., feed Wo/Ww 0.01
[10] = butanol, ABE solution in water, mixed xylenes 5:1, 75° C., feed Wo/Ww 0.02
[11] = butanol, ABE solution in water, mixed xylenes 5:1, 75° C., feed Wo/Ww 0.025
[12] = butanol, ABE solution in water, mixed xylenes 5:1, 75° C., feed Wo/Ww 0.03
[13] = n-butanol in water, mixed xylenes 5:1, 22° C., feed Wo/Ww 0.01
[14] = n-butanol in water, mixed xylenes 5:1, 22° C., feed Wo/Ww 0.02
[15] = n-butanol in water, mixed xylenes 5:1, 22° C., feed Wo/Ww 0.04
[16] = n-butanol in water, mixed xylenes 5:1, 22° C., feed Wo/Ww 0.06
[17] = n-butanol in water, mixed xylenes 5:1, 40° C., feed Wo/Ww 0.01
[18] = n-butanol in water, mixed xylenes 5:1, 40° C., feed Wo/Ww 0.02
[19] = n-butanol in water, mixed xylenes 5:1, 40° C., feed Wo/Ww 0.04
[20] = n-butanol in water, mixed xylenes 5:1, 40° C., feed Wo/Ww 0.06

**Q.** Which results are given for n-butanol?
**A.** Extract (Wo/Ws) [1, 3]: 0.0016 Wo/Ws; Raffinate (Wo/Ww) [1, 3]: 0.0018 Wo/Ww; Extract (Wo/Ws) [1, 4]: 0.0008 Wo/Ws; Raffinate (Wo/Ww) [1, 4]: 0.0009 Wo/Ww; Extract (Wo/Ws) [1, 5]: 0.0031 Wo/Ws; Raffinate (Wo/Ww) [1, 5]: 0.0038 Wo/Ww; Extract (Wo/Ws) [1, 6]: 0.0043 Wo/Ws; Raffinate (Wo/Ww) [1, 6]: 0.0043 Wo/Ww; Extract (Wo/Ws) [1, 7]: 0.0054 Wo/Ws; Raffinate (Wo/Ww) [1, 7]: 0.0052 Wo/Ww; Extract (Wo/Ws) [1, 8]: 0.0009 Wo/Ws; Raffinate (Wo/Ww) [1, 8]: 0.0005 Wo/Ww; Extract (Wo/Ws) [1, 9]: 0.0018 Wo/Ws; Raffinate (Wo/Ww) [1, 9]: 0.0009 Wo/Ww; Extract (Wo/Ws) [1, 10]: 0.0036 Wo/Ws; Raffinate (Wo/Ww) [1, 10]: 0.0019 Wo/Ww; Extract (Wo/Ws) [1, 11]: 0.0047 Wo/Ws; Raffinate (Wo/Ww) [1, 11]: 0.0025 Wo/Ww; Extract (Wo/Ws) [1, 12]: 0.0059 Wo/Ws; Raffinate (Wo/Ww) [1, 12]: 0.0030 Wo/Ww; Distribution Coefficient ([1]; butanol, dilute acetone/n-butanol/ethanol in water/mixed xylenes, solvent:feed 5:1, 40° C.): 0.9677; Distribution Coefficient ([1]; butanol, dilute acetone/n-butanol/ethanol in water/mixed xylenes, solvent:feed 5:1, 75° C.): 1.9257; Extract (Wo/Ws) [1, 13]: 0.0036 Wo/Ws; Raffinate (Wo/Ww) [1, 13]: 0.0054 Wo/Ww; Extract (Wo/Ws) [1, 14]: 0.0017 Wo/Ws; Raffinate (Wo/Ww) [1, 14]: 0.0027 Wo/Ww; Extract (Wo/Ws) [1, 15]: 0.0070 Wo/Ws; Raffinate (Wo/Ww) [1, 15]: 0.0103 Wo/Ww; Extract (Wo/Ws) [1, 16]: 0.0106 Wo/Ws; Raffinate (Wo/Ww) [1, 16]: 0.0141 Wo/Ww; Extract (Wo/Ws) [1, 17]: 0.0075 Wo/Ws; Raffinate (Wo/Ww) [1, 17]: 0.0069 Wo/Ww; Extract (Wo/Ws) [1, 18]: 0.0039 Wo/Ws; Raffinate (Wo/Ww) [1, 18]: 0.0037 Wo/Ww; Extract (Wo/Ws) [1, 19]: 0.0117 Wo/Ws; Raffinate (Wo/Ww) [1, 19]: 0.0098 Wo/Ww; Extract (Wo/Ws) [1, 20]: 0.0021 Wo/Ws; Raffinate (Wo/Ww) [1, 20]: 0.0018 Wo/Ww; Distribution Coefficient ([1]; n-butanol, water/mixed xylenes, solvent:feed 5:1, 22° C.): 0.7195; Distribution Coefficient ([1]; n-butanol, water/mixed xylenes, solvent:feed 5:1, 40° C.): 1.1494; Extract (Wo/Ws) ([2]; 5:1, 40° C., feed Wo/Ww 0.03): 0.0008 Wo/Ws; Raffinate (Wo/Ww) ([2]; 5:1, 40° C., feed Wo/Ww 0.03): 0.0003 Wo/Ww; Extract (Wo/Ws) ([2]; 5:1, 40° C., feed Wo/Ww 0.06): 0.0017 Wo/Ws; Raffinate (Wo/Ww) ([2]; 5:1, 40° C., feed Wo/Ww 0.06): 0.0006 Wo/Ww; Extract (Wo/Ws) ([2]; 5:1, 40° C., feed Wo/Ww 0.060): 0.00113 Wo/Ws; Raffinate (Wo/Ww) ([2]; 5:1, 40° C., feed Wo/Ww 0.060): 0.00038 Wo/Ww; Extract (Wo/Ws) ([2]; 5:1, 40° C., feed Wo/Ww 0.12): 0.0037 Wo/Ws; Raffinate (Wo/Ww) ([2]; 5:1, 40° C., feed Wo/Ww 0.12): 0.0011 Wo/Ww; Extract (Wo/Ws) ([2]; 5:1, 40° C., feed Wo/Ww 0.16): 0.0050 Wo/Ws; Raffinate (Wo/Ww) ([2]; 5:1, 40° C., feed Wo/Ww 0.16): 0.0014 Wo/Ww; Extract (Wo/Ws) ([2]; 5:1, 40° C., feed Wo/Ww 0.20): 0.0058 Wo/Ws; Raffinate (Wo/Ww) ([2]; 5:1, 40° C., feed Wo/Ww 0.20): 0.0017 Wo/Ww; Extract (Wo/Ws) ([2]; 5:1, 75° C., feed Wo/Ww 0.03): 0.0008 Wo/Ws; Raffinate (Wo/Ww) ([2]; 5:1, 75° C., feed Wo/Ww 0.03): 0.0002 Wo/Ww; Extract (Wo/Ws) ([2]; 5:1, 75° C., feed Wo/Ww 0.06): 0.0017 Wo/Ws; Raffinate (Wo/Ww) ([2]; 5:1, 75° C., feed Wo/Ww 0.06): 0.0005 Wo/Ww; Extract (Wo/Ws) ([2]; 5:1, 75° C., feed Wo/Ww 0.060): 0.00129 Wo/Ws; Raffinate (Wo/Ww) ([2]; 5:1, 75° C., feed Wo/Ww 0.060): 0.00026 Wo/Ww; Extract (Wo/Ws) ([2]; 5:1, 75° C., feed Wo/Ww 0.12): 0.0039 Wo/Ws; Raffinate (Wo/Ww) ([2]; 5:1, 75° C., feed Wo/Ww 0.12): 0.0010 Wo/Ww; Extract (Wo/Ws) ([2]; 5:1, 75° C., feed Wo/Ww 0.16): 0.0049 Wo/Ws; Raffinate (Wo/Ww) ([2]; 5:1, 75° C., feed Wo/Ww 0.16): 0.0012 Wo/Ww; Extract (Wo/Ws) ([2]; 5:1, 75° C., feed Wo/Ww 0.20): 0.0060 Wo/Ws; Raffinate (Wo/Ww) ([2]; 5:1, 75° C., feed Wo/Ww 0.20): 0.0014 Wo/Ww
